Chains of the proteins cited; added tags and fusions are not shown.
UniProt A0A7T1TE40, entry or part of it: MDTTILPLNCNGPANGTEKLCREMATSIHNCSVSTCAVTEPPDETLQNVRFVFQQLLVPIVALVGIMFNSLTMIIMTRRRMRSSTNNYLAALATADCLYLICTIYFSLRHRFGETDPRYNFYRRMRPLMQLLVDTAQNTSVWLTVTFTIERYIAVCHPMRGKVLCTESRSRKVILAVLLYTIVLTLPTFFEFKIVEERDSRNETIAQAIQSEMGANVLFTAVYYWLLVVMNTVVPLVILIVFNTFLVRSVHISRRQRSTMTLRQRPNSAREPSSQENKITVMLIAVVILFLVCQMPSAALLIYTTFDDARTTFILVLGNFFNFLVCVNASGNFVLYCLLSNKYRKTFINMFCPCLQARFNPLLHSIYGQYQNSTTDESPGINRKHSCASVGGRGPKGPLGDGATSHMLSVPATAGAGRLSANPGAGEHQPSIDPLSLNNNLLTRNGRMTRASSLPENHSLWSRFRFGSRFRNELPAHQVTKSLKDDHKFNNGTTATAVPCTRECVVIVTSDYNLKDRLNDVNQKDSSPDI

The target in one test is Varroa mite proctolin receptor (VdProctR) (Varroa destructor, UniProt A0A7T1TE40). Nature of the test: Receptor activity assay (aequorin luminescence), CHO cells transiently expressing the receptor, first set of ligands. Type of test: cell-based. The note with it: EC50 relative to proctolin, first set (transient expression). On the procedure: Cells were transiently transfected with pcDNA3.1 + containing the open reading frame of Varroa mite proctolin receptor (VdProctR) or empty vector using TransIT®-2020 (Mirus Bio). Approximately thirty hours after transfection, the cells were collected and preincubated with coelenterazine h for the functional assay, as previously described[30],[31],[52]. The ligands in serial dilutions were loaded into 96-well opaque plates. Cells treated with coelenterazine h were injected into each well on an Orion microplate luminometer (Berthold) luminescent plate reader. The luminescence was measured for 20 s immediately after the cell injections. Data analyses were performed to determine the accumulated luminescence value for 20 s after extraction of blank-well luminescence. A dose–response curve was generated and the EC50 (50% effective concentration) was calculated in Origin 7 (OriginLab) as described in Jiang et al.[31],[53]. The three biological replications were regressed for the dose–response curves with 95% confidence intervals (Table 1). For the tests of the second set of ligands, we used the cell line that stably expressed VdProctR, which were selected by Zeocin for 5 passages.
Turning to `CC(C)C[C@H](NC(=O)[C@H](Cc1ccc(O)cc1)NC(=O)[C@H](C)N)C(=O)N1CCC[C@H]1C(=O)N[C@H](C(=O)O)[C@@H](C)O` [Analog A1, AYLPT], the Fold change was 3921.7.

Take `CC(C)C[C@H](NC(=O)[C@H](C)NC(=O)[C@@H](N)CCCNC(=N)N)C(=O)N1CCC[C@H]1C(=O)N[C@H](C(=O)O)[C@@H](C)O` [Analog A2, RALPT]: the Fold change was determined as 6724.1. In turn, `C[C@H](NC(=O)[C@H](Cc1ccc(O)cc1)NC(=O)[C@@H](N)CCCNC(=N)N)C(=O)N1CCC[C@H]1C(=O)N[C@H](C(=O)O)[C@@H](C)O` [Analog A3, RYAPT] had a Fold change of 380.0.

`CC(C)C[C@H](NC(=O)[C@H](Cc1ccc(O)cc1)NC(=O)[C@@H](N)CCCNC(=N)N)C(=O)N[C@@H](C)C(=O)N[C@H](C(=O)O)[C@@H](C)O` [Analog A4, RYLAT] returned a Fold change of 22.1. As for `CC(C)C[C@H](NC(=O)[C@H](Cc1ccc(O)cc1)NC(=O)[C@@H](N)CCCNC(=N)N)C(=O)N1CCC[C@H]1C(=O)N[C@@H](C)C(=O)O` [Analog A5, RYLPA], the Fold change came to 172.3.

The test is the same for the next values; noted with them: activities at 1 μM and 10 μM.
On to `CC(C)C[C@H](NC(=O)[C@H](Cc1ccc(O)cc1)NC(=O)[C@@H](N)CCCNC(=N)N)C(=O)N[C@@H](C)C(=O)N[C@H](C(=O)O)[C@@H](C)O` [Analog A4, RYLAT], for which the “efficacy (maximal response) compared with proctolin” value is reported as “higher than that of proctolin”.

These data come from publication PMC9568543, “Bee-safe peptidomimetic acaricides achieved by comparative genomics” (Scientific Reports, 2022).
